The experiment has as its target Phosphatidylinositol 4,5-bisphosphate 3-kinase catalytic subunit beta isoform (Homo sapiens, UniProt P42338). Description: Inhibition of PI3Kbeta (unknown origin) using PIP2 as substrate preincubated for 10 mins followed by substrate addition and measured after 1 hr by ELISA.

The chains behind the UniProt entries cited, without tags or fusion partners. Where a name states a change or a piece, a line headed by the entry shows the natural chain unless it says otherwise.
UniProt P42338: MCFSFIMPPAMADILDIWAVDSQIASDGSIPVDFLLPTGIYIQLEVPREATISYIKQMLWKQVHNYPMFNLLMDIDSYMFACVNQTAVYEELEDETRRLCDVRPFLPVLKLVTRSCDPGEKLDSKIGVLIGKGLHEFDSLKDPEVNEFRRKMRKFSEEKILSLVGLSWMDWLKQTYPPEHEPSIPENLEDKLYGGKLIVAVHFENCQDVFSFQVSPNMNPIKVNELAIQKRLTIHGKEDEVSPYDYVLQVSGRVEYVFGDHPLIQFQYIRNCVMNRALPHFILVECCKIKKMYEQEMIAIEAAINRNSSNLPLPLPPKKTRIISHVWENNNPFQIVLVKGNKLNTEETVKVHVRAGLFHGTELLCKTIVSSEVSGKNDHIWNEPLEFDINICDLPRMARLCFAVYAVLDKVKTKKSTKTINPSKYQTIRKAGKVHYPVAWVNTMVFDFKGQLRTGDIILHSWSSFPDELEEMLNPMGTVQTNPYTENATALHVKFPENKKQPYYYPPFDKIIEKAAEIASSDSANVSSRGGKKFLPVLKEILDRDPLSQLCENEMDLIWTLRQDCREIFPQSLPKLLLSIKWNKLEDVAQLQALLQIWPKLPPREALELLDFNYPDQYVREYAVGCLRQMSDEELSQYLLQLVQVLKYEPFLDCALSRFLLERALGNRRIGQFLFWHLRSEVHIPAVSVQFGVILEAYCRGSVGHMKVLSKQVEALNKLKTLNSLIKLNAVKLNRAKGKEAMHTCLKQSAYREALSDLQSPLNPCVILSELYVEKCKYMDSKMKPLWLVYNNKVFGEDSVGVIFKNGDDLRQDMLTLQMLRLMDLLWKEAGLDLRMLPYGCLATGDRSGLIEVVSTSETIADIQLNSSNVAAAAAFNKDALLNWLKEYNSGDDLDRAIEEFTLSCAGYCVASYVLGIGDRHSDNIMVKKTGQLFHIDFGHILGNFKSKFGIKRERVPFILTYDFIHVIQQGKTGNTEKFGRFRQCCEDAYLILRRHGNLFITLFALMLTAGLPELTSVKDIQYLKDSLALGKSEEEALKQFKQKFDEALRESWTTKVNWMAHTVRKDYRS

`O=c1cc(N2CCOCC2)oc2c(-c3ccccc3)cccc12` [LY-294002] came in with an IC50 of 13.1 µM.

As usually defined, the IC50 is the midpoint of a concentration-inhibition curve.

(Values after ChEMBL document CHEMBL5055672, “Design, Synthesis, Biological Evaluation, and Computational Studies of Novel Fluorinated Candidates as PI3K Inhibitors: Targeting Fluorophilic Binding Sites” (J Med Chem, 2021).)
